The results in this text go back to ChEMBL document CHEMBL5113391, “Halogen substituents enhance oxime nucleophilicity for reactivation of cholinesterases inhibited by nerve agents” (2022).

The target of one data set is Cholinesterase (Homo sapiens, UniProt P06276). Nature of the data set: Reactivation of OP compound induced inhibition of BChE in human plasma using ATCh as substrate by Ellman's method. Background: Ellman's reagent forms a yellow product with free thiols.
The next data set addresses Acetylcholinesterase (Homo sapiens, UniProt P22303). Nature of the data set: Reactivation of OP compound induced inhibition of recombinant human AChE using ATCh as substrate by Ellman's method.
The nature of data set [1]: Stability of compound in PBS at 1 mg/ml for 8 hrs by UHPLC analysis. To be noted: buffer.
Data set [2] in a line: Stability of compound in unionized water at 1 mg/ml for 8 hrs by UHPLC analysis. Particulars: buffer.

One may read the Ki as the equilibrium dissociation constant of an inhibitor or competing ligand from its target. In the case of `NC(=O)c1cc[n+](CCCC[n+]2ccc(/C=N/O)c(F)c2)cc1`, the inhibition constant Ki on Cholinesterase is 25 µM; on Acetylcholinesterase it was 44 µM.

Take `NC(=O)c1cc[n+](C/C=C/C[n+]2ccc(/C=N/O)c(F)c2)cc1`: the inhibition constant (Ki) on Acetylcholinesterase is 36 µM.

`NC(=O)c1cc[n+](C/C=C/C[n+]2cc(F)c(/C=N/O)c(F)c2)cc1`: the Ki on Acetylcholinesterase turned out to be 68 µM.

In the case of `NC(=O)c1cc[n+](CCC[n+]2cc(F)c(/C=N/O)c(F)c2)cc1`, at Acetylcholinesterase, the Ki was 28 µM.

For the compound `NC(=O)c1cc[n+](CCC[n+]2cc(Cl)c(/C=N/O)c(Cl)c2)cc1.[Br-].[Br-]`, the figures for the Stability entry in data set [1] and in data set [2] were “Unstable” and “Stable”, respectively.

Regarding `NC(=O)c1cc[n+](CCCC[n+]2cc(F)c(/C=N/O)c(F)c2)cc1`, the Ki on Acetylcholinesterase was 63 µM.

As to `NC(=O)c1cc[n+](CCC[n+]2ccc(/C=N/O)c(F)c2)cc1`, the inhibitory constant (Ki) at Acetylcholinesterase came to 35 µM.
